pIC50: −log10 of the molar value. Where a name gives a salt, the structure may show the parent alone.
Tests used:
KB-V-1 cells = conditions: ratio of ID50 values
MCF-7/VP-16 cells = test: MTT cytotoxicity assay, MRP-resistant MCF-7/VP-16 cells

COc1cccc2c1C(=O)c1c(O)c3c(c(O)c1C2=O)C[C@@](O)(C(C)=O)C[C@@H]3O[C@H]1C[C@H](O)[C@H](NCc2ccc(CN[C@@H]3[C@H](C)O[C@@H](O[C@H]4C[C@](O)(C(C)=O)Cc5c(O)c6c(c(O)c54)C(=O)c4c(OC)cccc4C6=O)C[C@@H]3O)cc2)[C@H](C)O1 [WP652, α,α'-Bis-4'-N-(4'-amino-3'-deamino-4'-deoxy-3'-hydroxydaunorubicin)-p-xylene hydrochloride]
RI (resistance index) KB-V-1 / KB-3-1 (KB-V-1 cells): 1.5 | cytotoxicity in MCF-7/VP-16 cells compared with DOX, in words (MCF-7/VP-16 cells; MRP-resistant MCF-7/VP-16): dramatic increase in cytotoxicity | RI (resistance index) MCF-7/VP16 / MCF-7 (MCF-7/VP-16 cells; ratio of ID50 values, 4320 min): 0.9 | pIC50 (MCF-7/VP-16 cells; read-out: ID50 MCF-7/VP16, MTT, 72 h, MRP-resistant MCF-7/VP-16): 5.46
